Reference: US20090036364A1

How the values were obtained:
GIP receptor [1] = test: GIP receptor binding assay (RBA), format not described
GIP receptor [2] = test: cell-based or functional assay

| Substance | GIP RBA (GIP receptor [1]) | Cyclase (GIP receptor [2]) |
| --- | --- | --- |
| 0601GIP3794, (D-Ala2)GIP(1-30)-… amide form (peptide) | 3.8 nM | 38 |
| 0601GIP4178, octylglycine-GIP(1-30)-Exendin-4-(31-39) (peptide) | 1.5 nM | 96 |
| 0601GIP4252, [dAla2]GIP-(1-30)-[Octylglycine 34] Exendin-4 (31-39) (peptide) | 5.6 nM | 154 |
| 0601GIP4285, [dAla2, Leu14, Ala18, glu21] GIP-(1-30)-Exendin-4 (31-39) (peptide) | 0.58 nM |  |
